Test results reported in ChEMBL document CHEMBL4196235, “SAR of 4-Alkoxybenzoic Acid Inhibitors of the Trypanosome Alternative Oxidase” (ACS Med Chem Lett, 2018).

Tested on: HEK-293T
Assay: Cytotoxicity against HEK293T cells after 30 hrs by resazurin dye based fluorescence assay
Format: cell-based
Settings: human

`O=[As]c1ccccc1` (stereo unspecified) gave a CC50 of 1100 nM.
